Assays:
aducanumab = test: ELISA of aducanumab on plates coated with truncated Aβ peptides; assay type: binding, human; conditions: for EC50: aducanumab on peptide coated or captured at 5 μg/mL (multivalent effects), antibody from 100 nM, 2 h room temperature, read-out: Binding activity (EC50); for Fold reduction (relative to Aβ1-42): reduction of aducanumab binding affinity, peptide 5 μg/mL
Method: For N-terminally truncated Aβ peptides, untagged peptides were used. For ELISA, 96-well microplates were coated with 5 μg/mL peptide in Coating Buffer (15 mM Na2CO3, 35 mM NaHCO3, pH 9.6) overnight at 4 °C. Plates were washed and non-specific binding sites were blocked with 2% BSA in PBS for 1 h at 25 °C. Serially diluted antibody starting from 100 nM in Assay Buffer (2% BSA in PBS) was added, and the plates were incubated for 2 h at room temperature. Binding was determined by incubation with an HRP-conjugated goat anti-human polyclonal antibody (Jackson ImmunoResearch) followed by measurement of HRP activity using Ultra TMB ELISA Colorimetric Substrate Solution (Thermo Fisher Scientific). For C-terminally truncated Aβ peptides, biotin-conjugated peptides were used. The biotin was attached synthetically to the C terminus of the protein by incorporation of a non-native lysine residue. For ELISA, biotin-conjugated peptides were incubated for 1 h at room temperature, at a concentration of 5 μg/mL in Assay Buffer, using plates that were pre-coated with neutravidin (Thermo Fisher Scientific, Reacti-Bind plates). Plates were washed, antibodies diluted serially in Assay Buffer were added, and binding was measured as described above.

Sequences of proteins named here, by UniProt entry; tags and fusion partners are left off. A change or cut given only in a name is not applied to a line headed by its entry.
UniProt P05067: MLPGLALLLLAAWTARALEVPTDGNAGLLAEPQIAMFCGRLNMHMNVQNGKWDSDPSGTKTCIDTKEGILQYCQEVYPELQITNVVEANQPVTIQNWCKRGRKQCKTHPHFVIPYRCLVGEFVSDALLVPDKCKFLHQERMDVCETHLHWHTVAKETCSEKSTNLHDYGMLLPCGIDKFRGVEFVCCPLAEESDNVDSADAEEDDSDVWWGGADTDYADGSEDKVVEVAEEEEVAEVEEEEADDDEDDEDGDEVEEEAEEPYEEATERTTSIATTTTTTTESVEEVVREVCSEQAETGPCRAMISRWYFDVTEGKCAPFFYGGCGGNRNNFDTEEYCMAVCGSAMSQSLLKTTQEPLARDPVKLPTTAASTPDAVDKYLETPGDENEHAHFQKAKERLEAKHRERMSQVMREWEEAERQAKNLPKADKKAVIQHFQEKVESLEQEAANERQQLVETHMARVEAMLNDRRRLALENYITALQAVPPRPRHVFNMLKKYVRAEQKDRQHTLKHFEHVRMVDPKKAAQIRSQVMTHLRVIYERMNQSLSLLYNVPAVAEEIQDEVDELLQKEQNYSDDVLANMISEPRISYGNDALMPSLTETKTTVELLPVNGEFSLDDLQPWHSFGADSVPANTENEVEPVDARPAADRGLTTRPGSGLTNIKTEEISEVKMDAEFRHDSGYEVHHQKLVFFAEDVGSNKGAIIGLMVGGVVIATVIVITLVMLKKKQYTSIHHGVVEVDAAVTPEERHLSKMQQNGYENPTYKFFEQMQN

Aβ1-42 monomer = test: ELISA, effect of coating concentration, monomer; assay type: binding
Source text: (§1) Aβ1-42 concentration Aβ1-42 oligomer Aβ1-42 monomer
(§2) (µg/mL) (EC50, nM) (EC50, nM)

Aβ1-42 oligomer = test: ELISA, effect of coating concentration, oligomers; assay type: binding
Source text: as §1, §2

[1] = Aβ1-42 coating concentration 0.1 μg/mL
[2] = Aβ1-42 coating concentration 1 μg/mL
[3] = Aβ1-42 coating concentration 10 μg/mL

## 1–12: C-terminally biotinylated truncated Aβ peptide, residues 1–12 (DAEFRHDSGYEV; Amyloid-beta protein 42 C-terminal biotin; UniProt P05067 672-683, looked up, fragment)
aducanumab
  EC50: 0.55 nM

## 1–16: C-terminally biotinylated truncated Aβ peptide, residues 1–16 (DAEFRHDSGYEVHHQK; Amyloid-beta protein 42 C-terminal biotin; UniProt P05067 672-687, looked up, fragment)
aducanumab
  EC50: 0.5 nM
  Fold reduction (relative to Aβ1-42): 1.3 fold

## 2–42: untagged N-terminally truncated Aβ peptide
aducanumab
  EC50: 0.36 nM
  Fold reduction (relative to Aβ1-42): 1.0 fold
aducanumab; listed as Aβ2-42
  Fold reduction (relative to Aβ1-42): little impact

## 4–42: untagged N-terminally truncated Aβ peptide
aducanumab
  EC50: 15 nM
  Fold reduction (relative to Aβ1-42): 41 fold
aducanumab; listed as Aβ4-42
  Fold reduction (relative to Aβ1-42): > 40 fold

## aducanumab: recombinant human antibody targeting amyloid-β, derived from a blood lymphocyte library of healthy elderly donors
Aβ1-42 monomer; [1]
  EC50: 20 nM
Aβ1-42 monomer; [2]
  EC50: 0.16 nM
Aβ1-42 monomer; [3]
  EC50: 0.09 nM
Aβ1-42 oligomer; [1]
  EC50: 0.09 nM
Aβ1-42 oligomer; [2]
  EC50: 0.06 nM
Aβ1-42 oligomer; [3]
  EC50: 0.09 nM

Source: paper PMC5913127 (Scientific Reports, 2018)
